{"sequences": {"note": "Chains of the proteins cited; added tags and fusions are not shown. Residues count along the entry.", "UniProt Q63380, 1-617": "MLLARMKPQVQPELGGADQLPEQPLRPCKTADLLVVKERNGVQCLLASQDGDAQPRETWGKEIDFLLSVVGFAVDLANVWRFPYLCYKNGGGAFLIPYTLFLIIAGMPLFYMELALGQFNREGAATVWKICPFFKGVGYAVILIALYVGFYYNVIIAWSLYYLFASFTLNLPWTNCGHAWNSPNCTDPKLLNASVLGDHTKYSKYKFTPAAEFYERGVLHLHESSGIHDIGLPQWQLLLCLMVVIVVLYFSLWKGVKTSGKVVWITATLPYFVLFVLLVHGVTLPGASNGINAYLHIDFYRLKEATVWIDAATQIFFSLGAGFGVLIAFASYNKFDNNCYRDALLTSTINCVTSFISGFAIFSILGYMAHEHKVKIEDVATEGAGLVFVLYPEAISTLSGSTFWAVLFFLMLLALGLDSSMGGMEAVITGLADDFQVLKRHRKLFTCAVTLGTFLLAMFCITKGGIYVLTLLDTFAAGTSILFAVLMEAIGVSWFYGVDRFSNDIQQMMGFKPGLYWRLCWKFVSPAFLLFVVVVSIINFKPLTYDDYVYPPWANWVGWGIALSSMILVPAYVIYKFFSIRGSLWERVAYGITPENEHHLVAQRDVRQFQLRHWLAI", "UniProt Q13224, 27-1484": "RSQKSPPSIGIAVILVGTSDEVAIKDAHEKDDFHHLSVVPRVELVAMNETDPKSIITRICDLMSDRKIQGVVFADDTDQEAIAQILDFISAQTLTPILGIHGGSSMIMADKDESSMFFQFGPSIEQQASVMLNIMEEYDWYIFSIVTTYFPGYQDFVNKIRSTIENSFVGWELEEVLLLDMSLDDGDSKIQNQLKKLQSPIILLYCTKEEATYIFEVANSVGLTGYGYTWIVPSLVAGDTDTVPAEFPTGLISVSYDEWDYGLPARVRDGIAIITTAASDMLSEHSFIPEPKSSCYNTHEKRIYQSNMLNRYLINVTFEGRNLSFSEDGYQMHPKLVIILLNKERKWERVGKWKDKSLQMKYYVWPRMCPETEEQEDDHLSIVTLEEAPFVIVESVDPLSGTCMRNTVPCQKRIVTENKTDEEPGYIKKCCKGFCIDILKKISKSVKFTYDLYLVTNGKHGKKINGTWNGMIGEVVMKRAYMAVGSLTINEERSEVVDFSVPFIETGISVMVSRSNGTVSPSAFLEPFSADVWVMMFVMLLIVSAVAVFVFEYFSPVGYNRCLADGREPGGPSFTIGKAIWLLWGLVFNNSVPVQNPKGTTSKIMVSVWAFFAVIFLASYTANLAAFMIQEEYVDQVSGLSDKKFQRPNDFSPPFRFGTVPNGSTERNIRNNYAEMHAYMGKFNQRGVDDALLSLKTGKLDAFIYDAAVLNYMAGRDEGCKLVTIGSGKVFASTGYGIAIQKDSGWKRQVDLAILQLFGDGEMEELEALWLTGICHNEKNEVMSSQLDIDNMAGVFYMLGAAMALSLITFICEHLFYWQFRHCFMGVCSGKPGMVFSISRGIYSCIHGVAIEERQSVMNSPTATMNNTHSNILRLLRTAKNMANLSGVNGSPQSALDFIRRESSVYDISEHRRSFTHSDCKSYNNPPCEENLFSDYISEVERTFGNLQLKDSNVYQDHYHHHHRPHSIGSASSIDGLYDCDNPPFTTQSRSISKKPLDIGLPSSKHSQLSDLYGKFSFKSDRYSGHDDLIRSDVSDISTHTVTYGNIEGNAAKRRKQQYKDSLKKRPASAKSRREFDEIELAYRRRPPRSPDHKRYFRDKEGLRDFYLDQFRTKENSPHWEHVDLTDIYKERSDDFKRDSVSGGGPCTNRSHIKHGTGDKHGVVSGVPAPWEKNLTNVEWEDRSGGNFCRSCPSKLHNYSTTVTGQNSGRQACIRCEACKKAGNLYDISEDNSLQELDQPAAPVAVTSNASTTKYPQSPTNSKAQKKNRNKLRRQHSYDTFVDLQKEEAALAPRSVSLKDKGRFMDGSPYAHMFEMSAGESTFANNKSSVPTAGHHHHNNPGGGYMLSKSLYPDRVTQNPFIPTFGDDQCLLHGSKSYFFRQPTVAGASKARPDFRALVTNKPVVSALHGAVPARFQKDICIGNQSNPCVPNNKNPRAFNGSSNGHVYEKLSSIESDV", "UniProt Q12879, 23-1464": "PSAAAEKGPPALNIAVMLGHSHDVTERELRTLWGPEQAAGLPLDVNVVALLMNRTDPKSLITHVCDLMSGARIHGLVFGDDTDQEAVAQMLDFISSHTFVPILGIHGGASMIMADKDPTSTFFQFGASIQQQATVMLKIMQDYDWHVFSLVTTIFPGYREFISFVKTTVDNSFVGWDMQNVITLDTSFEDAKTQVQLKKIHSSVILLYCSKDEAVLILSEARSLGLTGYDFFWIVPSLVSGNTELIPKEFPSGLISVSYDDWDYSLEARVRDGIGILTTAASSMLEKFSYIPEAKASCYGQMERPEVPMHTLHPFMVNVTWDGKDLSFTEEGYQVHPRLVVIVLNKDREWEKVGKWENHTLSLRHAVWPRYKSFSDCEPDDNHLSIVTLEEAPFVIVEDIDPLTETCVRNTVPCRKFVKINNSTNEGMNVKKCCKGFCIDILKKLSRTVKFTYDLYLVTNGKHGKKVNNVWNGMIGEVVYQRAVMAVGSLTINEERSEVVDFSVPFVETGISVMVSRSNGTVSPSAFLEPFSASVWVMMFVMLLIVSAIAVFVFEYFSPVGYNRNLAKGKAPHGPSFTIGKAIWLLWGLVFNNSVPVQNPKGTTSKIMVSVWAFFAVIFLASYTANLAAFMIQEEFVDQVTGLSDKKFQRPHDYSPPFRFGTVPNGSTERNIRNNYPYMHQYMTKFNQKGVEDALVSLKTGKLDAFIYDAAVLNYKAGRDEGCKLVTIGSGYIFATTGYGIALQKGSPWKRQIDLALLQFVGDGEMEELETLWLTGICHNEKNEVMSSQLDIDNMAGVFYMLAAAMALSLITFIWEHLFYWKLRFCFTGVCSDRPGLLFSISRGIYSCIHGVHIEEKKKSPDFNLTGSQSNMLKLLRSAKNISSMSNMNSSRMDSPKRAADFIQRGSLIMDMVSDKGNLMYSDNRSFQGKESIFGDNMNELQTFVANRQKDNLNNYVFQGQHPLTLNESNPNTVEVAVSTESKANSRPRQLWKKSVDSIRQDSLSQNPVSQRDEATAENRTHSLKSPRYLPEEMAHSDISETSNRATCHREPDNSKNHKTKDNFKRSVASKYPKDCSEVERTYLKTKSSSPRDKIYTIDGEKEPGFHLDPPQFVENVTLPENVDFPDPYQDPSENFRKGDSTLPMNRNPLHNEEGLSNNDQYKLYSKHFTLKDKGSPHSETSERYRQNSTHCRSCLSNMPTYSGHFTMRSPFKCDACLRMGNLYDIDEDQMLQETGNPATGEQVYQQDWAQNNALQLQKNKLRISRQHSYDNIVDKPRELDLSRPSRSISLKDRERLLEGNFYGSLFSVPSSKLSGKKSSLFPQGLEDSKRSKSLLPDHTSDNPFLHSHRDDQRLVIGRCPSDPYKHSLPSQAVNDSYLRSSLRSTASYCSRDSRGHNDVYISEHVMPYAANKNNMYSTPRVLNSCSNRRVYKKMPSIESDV"}, "source": "patent US20180214395A1", "about": "(priority 2017, published 2018)", "key": {"[1]": {"target": "T1, norepinephrine transporter (NET) (Rattus norvegicus, UniProt Q63380)", "T1 construct": "tissue Eurofins Cerep; host or cells: rat hypothalamus synaptosomes (own knowledge of the vendor's assay)", "assay": "Norepinephrine uptake assay", "assay_type": "biochemical", "conditions": "Study 1, test concentration 1.0E−05 M; for % Inhibition of Control Values, 1st: 1st replicate; for % Inhibition of Control Values, 2nd: 2nd replicate; for % Inhibition of Control Values, Mean: mean of replicates"}, "[2]": {"target": "T2, human cloned NMDA NR1/NR2B receptors expressed in HEK293 cells (Homo sapiens, UniProt Q05586+Q13224)", "conditions": "for IC50: read-out: NR1/NR2B EC/IC50 (IC50)"}, "[3]": {"target": "T2, human cloned NMDA NR1/NR2B receptors expressed in HEK293 cells", "assay": "cell-based", "conditions": "NR1/NR2B EC/IC50 (IC50)"}, "[4]": {"target": "T3, human cloned NMDA NR1/NR2A receptors expressed in HEK293 cells (Homo sapiens, UniProt Q05586+Q12879)", "conditions": "for IC50: read-out: NR1/NR2A EC/IC50 (IC50)"}, "[5]": {"target": "T3, human cloned NMDA NR1/NR2A receptors expressed in HEK293 cells", "assay": "cell-based", "conditions": "NR1/NR2A EC/IC50 (IC50)"}, "[6]": {"conditions": "peak current amplitude, 10 μM glutamate, 50 μM glycine"}, "[7]": {"conditions": "steady state current amplitude, 2 seconds after application"}}, "note": "Where a name gives a salt, the structure may show the parent alone. Read-outs that look alike come from different tables or passages of the source.", "data": [{"compound": "[2H]C([2H])([2H])CC(=O)C(C[C@H](C)N(C([2H])([2H])[2H])C([2H])([2H])[2H])(c1ccccc1)c1ccccc1", "values": [{"measurement": "% Inhibition of Control Values, 1st", "setting": "[1]", "value": 69.7, "unit": "%"}, {"measurement": "% Inhibition of Control Values, 2nd", "setting": "[1]", "value": 53.0, "unit": "%"}, {"measurement": "% Inhibition of Control Values, Mean", "setting": "[1]", "value": 61.4, "unit": "%"}]}, {"compound": "CCC(=O)C(C[C@H](C)N(C)C)(c1ccccc1)c1ccccc1", "note": "[d-methadone]", "values": [{"measurement": "% Inhibition of Control Values, 1st", "setting": "[1]", "value": 70.3, "unit": "%"}, {"measurement": "% Inhibition of Control Values, 2nd", "setting": "[1]", "value": 53.0, "unit": "%"}, {"measurement": "% Inhibition of Control Values, Mean", "setting": "[1]", "value": 61.6, "unit": "%"}]}, {"compound": "CNC1(c2ccccc2Cl)CCCCC1=O", "note": "(centres unmarked) [Ketamine HCL]", "values": [{"measurement": "NR1/NR2B HillSlope", "setting": "[2]; peak current amplitude", "value": "−1.01"}, {"measurement": "NR1/NR2B HillSlope", "setting": "[2]; steady state current amplitude", "value": "−0.97"}, {"measurement": "IC50", "setting": "[3]; [6]", "value": 2.69, "unit": "µM"}, {"measurement": "IC50", "setting": "[3]; [7]", "value": 2.38, "unit": "µM"}, {"measurement": "NR1/NR2A HillSlope", "setting": "[4]; peak current amplitude", "value": 1.55}, {"measurement": "NR1/NR2A HillSlope", "setting": "[4]; steady state current amplitude", "value": "−1.62"}, {"measurement": "IC50", "setting": "[5]; [6]", "value": 8.07, "unit": "µM"}, {"measurement": "IC50", "setting": "[5]; [7]", "value": 6.19, "unit": "µM"}]}, {"compound": "c1ccc(C2(N3CCCCC3)CCCCC2)cc1", "note": "[Phencyclidine HCL]", "values": [{"measurement": "NR1/NR2B HillSlope", "setting": "[2]; peak current amplitude", "value": "−0.58"}, {"measurement": "NR1/NR2B HillSlope", "setting": "[2]; steady state current amplitude", "value": "−0.56"}, {"measurement": "IC50", "setting": "[3]; [6]", "value": 1.41, "unit": "µM"}, {"measurement": "IC50", "setting": "[3]; [7]", "value": 1.14, "unit": "µM"}, {"measurement": "NR1/NR2A HillSlope", "setting": "[4]; peak current amplitude", "value": 0.60}, {"measurement": "NR1/NR2A HillSlope", "setting": "[4]; steady state current amplitude", "value": "−0.73"}, {"measurement": "IC50", "setting": "[5]; [6]", "value": 4.57, "unit": "µM"}, {"measurement": "IC50", "setting": "[5]; [7]", "value": 2.69, "unit": "µM"}]}, {"compound": "Levorphanol Tartrate", "values": [{"measurement": "NR1/NR2B HillSlope", "setting": "[2]; peak current amplitude", "value": "−1.09"}, {"measurement": "IC50", "setting": "[2]; [6]", "value": 3.81, "unit": "µM"}, {"measurement": "IC50", "setting": "[2]; [7]", "value": 3.59, "unit": "µM"}, {"measurement": "NR1/NR2B HillSlope", "setting": "[2]; steady state current amplitude", "value": "−0.98"}, {"measurement": "NR1/NR2A HillSlope", "setting": "[4]; peak current amplitude", "value": 0.75}, {"measurement": "IC50", "setting": "[4]; [6]", "value": 2.68, "unit": "µM"}, {"measurement": "IC50", "setting": "[4]; [7]", "value": 1.88, "unit": "µM"}, {"measurement": "NR1/NR2A HillSlope", "setting": "[4]; steady state current amplitude", "value": "−0.78"}]}, {"compound": "CC[C@@H](c1cccc(O)c1)[C@@H](C)CN(C)C", "note": "[tapentadol hydrochloride, reference compound]", "values": [{"measurement": "% Inhibition of Control Values, 1st", "setting": "[1]", "value": 103.4, "unit": "%"}, {"measurement": "% Inhibition of Control Values, 2nd", "setting": "[1]", "value": 84.8, "unit": "%"}, {"measurement": "% Inhibition of Control Values, Mean", "setting": "[1]", "value": 94.1, "unit": "%"}]}, {"compound": "CCC(=O)C(C[C@@H](C)N(C)C)(c1ccccc1)c1ccccc1", "note": "(racemic) [l-methadone, reference compound]", "values": [{"measurement": "% Inhibition of Control Values, 1st", "setting": "[1]", "value": 96.5, "unit": "%"}, {"measurement": "% Inhibition of Control Values, 2nd", "setting": "[1]", "value": 84.1, "unit": "%"}, {"measurement": "% Inhibition of Control Values, Mean", "setting": "[1]", "value": 90.3, "unit": "%"}]}, {"compound": "CN[C@]1(c2ccccc2Cl)CCCCC1=O.Cl", "note": "[S-(+)-Ketamine HCL]", "values": [{"measurement": "NR1/NR2B HillSlope", "setting": "[2]; peak current amplitude", "value": "−0.85"}, {"measurement": "IC50", "setting": "[2]; [6]", "value": 3.28, "unit": "µM"}, {"measurement": "IC50", "setting": "[2]; [7]", "value": 2.88, "unit": "µM"}, {"measurement": "NR1/NR2B HillSlope", "setting": "[2]; steady state current amplitude", "value": "−0.99"}, {"measurement": "NR1/NR2A HillSlope", "setting": "[4]; peak current amplitude", "value": 0.86}, {"measurement": "IC50", "setting": "[4]; [6]", "value": 7.56, "unit": "µM"}, {"measurement": "IC50", "setting": "[4]; [7]", "value": 4.41, "unit": "µM"}, {"measurement": "NR1/NR2A HillSlope", "setting": "[4]; steady state current amplitude", "value": "−0.85"}]}]}
